Measurements taken from PubChem BioAssay (EPA / NIEHS).
Only a part is listed here, and it is no random draw. Where a structure was tested more than once in an assay, its records may differ in their call. Activity calls are given as the source filed them. Rule for the calls: active = hit-call score of the fitted dose curve at least 0.9, where 1 is the maximum; inactive = score below 0.9.

experiment: ATG_PPRE_CIS: Attagene CIS-FACTORIAL HepG2 Assay for human Peroxisome Proliferator-activated Response Element (PPRE) (AID 2282958); details: HepG2 PPRE cis-element reporter, Attagene transcription factor profiling; actives raise or lower the signal

Compound | AC50 | outcome
OCc1ccccc1 | active: 34.6 µM | inactive
CCCCCCCCN(C)C |  | inactive
C=CCOC(=O)c1ccccc1C(=O)OCC=C | active: 26.5 µM | 
NCCOCCOCCN |  | inactive
CCCCCCCCCCCCCCCCOS(=O)(=O)O | active: 6.18 µM | 
CC(N)=O |  | inactive
C=CC(=O)OCCC(=O)O |  | inactive
COc1ccc([C@@H]2CC(=O)c3c(O)cc(O[C@@H]4O[C@H](CO[C@@H]5O[C@@H](C)[C@H](O)[C@@H](O)[C@H]5O)[C@@H](O)[C@H](O)[C@H]4O)cc3O2)cc1OC |  | inactive
O=Cc1ccc(CO)o1 |  | inactive
Cc1occc(=O)c1O |  | inactive
CCC(=O)OCCOc1ccccc1 |  | inactive
Cc1cc(C2(c3cc(C)c(O)cc3C)OS(=O)(=O)c3ccccc32)c(C)cc1O |  | inactive
CCCCCCCCCCCCCCCCCC(=O)O |  | inactive
CCCCCC(=O)OCC |  | inactive
C[C@@H]1CCN(C(=O)[C@H](CCCN=C(N)N)NS(=O)(=O)c2cccc3c2NC[C@H](C)C3)[C@@H](C(=O)O)C1 |  | inactive
CN1CCN(Cc2cc(-c3ccc4[nH]c(=O)oc4c3)co2)[C@@H](c2ccc(F)cc2)C1 |  | inactive
O=C(O)c1cccnc1C(=O)O |  | inactive
CCN(CC)CCOC(=O)c1ccc(N)cc1 |  | inactive
CCCCCCCCCCCCCCCS(=O)(=O)Oc1ccccc1 |  | inactive
O=P(O)(O)Oc1ccccc1 |  | inactive
CC(C)CCCCCCc1ccc(OCCOCCO)cc1 |  | inactive
OCC(CO)(CO)COCC(CO)(CO)CO |  | inactive
CN(Cc1cnc2nc(N)nc(N)c2n1)c1ccc(C(=O)N[C@@H](CCC(=O)O)C(=O)O)cc1 |  | inactive

experiment: ATG_RORE_CIS: Attagene CIS-FACTORIAL HepG2 Assay for human RAR-related Orphan Receptor Element (RORE) (AID 2282959); details: HepG2 Attagene cis-factorial RORE reporter, mRNA; actives raise or lower the signal

Compound | outcome
O=C(O)c1ccc2c(c1)C(=O)OC2=O | inactive
C[C@@H]1CCN(C(=O)[C@H](CCCN=C(N)N)NS(=O)(=O)c2cccc3c2NC[C@H](C)C3)[C@@H](C(=O)O)C1 | inactive
CN1CCN(Cc2cc(-c3ccc4[nH]c(=O)oc4c3)co2)[C@@H](c2ccc(F)cc2)C1 | inactive
CC(C)CCCCCCc1ccc(OCCOCCO)cc1 | inactive
